# Assay results: ChEMBL document CHEMBL5038675, “Selective A3 Adenosine Receptor Antagonist Radioligand for Human and Rodent Species” (ACS Med Chem Lett, 2022)
# Amino acid sequences for entries named in this document (tags omitted).
# UniProt P0DMS8, whole entry: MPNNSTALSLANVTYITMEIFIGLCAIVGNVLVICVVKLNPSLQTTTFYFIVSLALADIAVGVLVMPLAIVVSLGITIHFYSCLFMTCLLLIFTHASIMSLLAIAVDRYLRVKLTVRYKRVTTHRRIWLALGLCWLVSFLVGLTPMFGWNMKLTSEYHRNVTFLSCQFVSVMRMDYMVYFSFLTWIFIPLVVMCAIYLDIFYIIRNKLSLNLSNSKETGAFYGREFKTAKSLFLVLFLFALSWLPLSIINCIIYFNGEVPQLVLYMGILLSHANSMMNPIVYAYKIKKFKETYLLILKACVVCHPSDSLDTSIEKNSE
# Target: Adenosine receptor A3 (Homo sapiens, UniProt P0DMS8)
row,Ki,Structure (SMILES)
1,1000 nM,CNC(=O)[C@H]1O[C@@H](n2cnc3c(NCc4ccc(N)c(I)c4)ncnc32)[C@H](O)[C@@H]1O
2,1130 nM,CCCn1cc2c(nc(NC(=O)Nc3ccc(OC)cc3)n3nc(-c4ccco4)nc23)n1
